The text below walks through data of patent US20230312639A1, “GPER PROTEOLYTIC TARGETING CHIMERAS” (University of Iowa Research Foundation, priority 2020, published 2023).

Protein sequences, listed by entry. Tags and fused reporters are not part of them.
UniProt P03372, whole entry: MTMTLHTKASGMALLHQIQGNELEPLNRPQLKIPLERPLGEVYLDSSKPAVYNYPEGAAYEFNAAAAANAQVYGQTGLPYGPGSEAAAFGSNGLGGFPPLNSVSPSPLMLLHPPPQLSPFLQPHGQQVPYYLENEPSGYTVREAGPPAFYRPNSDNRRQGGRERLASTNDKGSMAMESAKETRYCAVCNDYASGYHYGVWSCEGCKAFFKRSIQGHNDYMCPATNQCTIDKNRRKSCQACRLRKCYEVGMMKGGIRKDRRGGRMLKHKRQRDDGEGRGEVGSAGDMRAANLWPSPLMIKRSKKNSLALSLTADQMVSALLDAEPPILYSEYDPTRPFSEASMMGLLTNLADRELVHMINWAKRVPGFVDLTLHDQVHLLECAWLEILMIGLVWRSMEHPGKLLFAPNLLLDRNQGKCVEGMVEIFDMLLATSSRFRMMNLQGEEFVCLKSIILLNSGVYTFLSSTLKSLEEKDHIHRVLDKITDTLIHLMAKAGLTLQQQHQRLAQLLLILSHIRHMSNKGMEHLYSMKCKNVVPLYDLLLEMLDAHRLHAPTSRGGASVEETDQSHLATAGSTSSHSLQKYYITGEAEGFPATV
UniProt P61073, whole entry: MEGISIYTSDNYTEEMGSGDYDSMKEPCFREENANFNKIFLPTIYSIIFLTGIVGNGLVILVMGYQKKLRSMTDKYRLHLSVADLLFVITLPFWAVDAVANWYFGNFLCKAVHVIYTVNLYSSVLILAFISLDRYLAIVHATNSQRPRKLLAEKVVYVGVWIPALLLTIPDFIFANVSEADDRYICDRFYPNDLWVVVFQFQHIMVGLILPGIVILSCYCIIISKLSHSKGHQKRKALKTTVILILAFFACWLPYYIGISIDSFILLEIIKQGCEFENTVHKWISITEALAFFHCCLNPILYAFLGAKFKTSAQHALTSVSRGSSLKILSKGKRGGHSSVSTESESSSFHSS
UniProt P08588, whole entry: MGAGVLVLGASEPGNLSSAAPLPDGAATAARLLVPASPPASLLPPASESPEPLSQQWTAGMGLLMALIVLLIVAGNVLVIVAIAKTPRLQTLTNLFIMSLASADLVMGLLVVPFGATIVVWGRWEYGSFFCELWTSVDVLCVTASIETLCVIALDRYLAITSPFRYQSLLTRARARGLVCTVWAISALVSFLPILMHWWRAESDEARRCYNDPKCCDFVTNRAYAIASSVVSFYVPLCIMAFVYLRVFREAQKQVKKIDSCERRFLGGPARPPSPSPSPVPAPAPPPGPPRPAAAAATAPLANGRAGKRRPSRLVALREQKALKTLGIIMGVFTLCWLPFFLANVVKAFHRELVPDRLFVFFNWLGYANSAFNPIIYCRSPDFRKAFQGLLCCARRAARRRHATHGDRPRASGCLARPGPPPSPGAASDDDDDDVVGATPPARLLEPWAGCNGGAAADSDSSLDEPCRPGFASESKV

The term IC50 denotes the point on the concentration scale where inhibition reaches its midpoint. One may read the Kd as the constant that tells how readily two partners part at equilibrium.

For experiment [1], the system named is MCF-7 cells. Description: Cell cycle analysis, propidium iodide, flow cytometry. The note with it: MCF-7, 10 µM, 24 hours.
Experiment [2] relates to MDA-MB-231 cells. The experiment is described as above. To be noted: MDA-MB-231, 10 µM, 24 hours.
The test system of experiment [3] is HCC1806 cells. The description is as above. To be noted: HCC1806, 10 µM, 24 hours.
For experiment [4], the system named is SKBR3 cells. The description is as above. The note with it: SKBR3, 10 µM, 24 hours.
In experiment [5] the target is HiBiT-ERα (Homo sapiens, UniProt P03372). Briefly: Nano-BiT binary luminescence complementation, transfected HEK-293 cells, total receptor. The format is cell-based.
Experiment [6] has as its system ERs (ERa and ERb). Briefly: Fluorescence polarization competitive binding with E2-FITC in cytosolic fractions from MCF-7 cells. Also on record: species or system human. On the technique in general: In fluorescence polarisation assays a small probe gives low polarisation when free and higher when bound to something large.
Experiment [7] has as its system MDA-MB-231 cells. Description: Cell viability assay, 24 hour treatment. The note with it: read-out: IC50 (µM), cell viability; MDA-MB-231, 24 hours.
For experiment [8], the target named is HA-CXCR4 (Homo sapiens, UniProt P61073). Description: Immunofluorescence with HA antibody, stably transfected HEK293 cells. The note with it: 100 µM, 1 hour.
The target of experiment [9] is HA-b1AR (Homo sapiens, UniProt P08588). Described as above. To be noted: 100 µM, 1 hour.

For `Cc1ncsc1-c1ccc(CNC(=O)[C@@H]2C[C@@H](O)CN2C(=O)[C@@H](NC(=O)COCCOCCOCCOCC(=O)NCCOCCOCCOCCOCCOCCOCCOCCOCC(=O)O[C@H]2CC[C@H]3[C@@H]4CCc5cc(O)ccc5[C@H]4CC[C@]23C)C(C)(C)C)cc1`, the cell cycle distribution entry in [1] is reported as “dramatic increase in the G2/M peak”; in experiment [2], “This shift was not observed”; in experiment [3] it was “dramatic increase in the G2/M peak”; in [4], “dramatic increase in the G2/M peak”. For the same compound, the “reduction in expression level of recombinant ER” value in experiment [5] (100 µM, as early as 1 h) was 50%. Besides, the “change of HiBiT-ERα” value in experiment [5] (increasing doses, 1 hour, partial PROTAC 100 µM) is “dose-dependent decrease”. The “RBA%, ERs” value in experiment [6] (IC50 of 17β-E2 divided by IC50 of test compound) came to 49%. For the same compound, the IC50 in [6] (read-out: IC50 (nM), ERs, MCF-7 cytosolic fraction, 10 nM E2-FITC, mean ± SD of triplicates) was 11.4 nM; in [7] it was over 100 µM. Moreover, the Kd in experiment [6] (read-out: binding dissociation constant (Kd), ER, MCF-7 cytosolic fractions, E2-FITC) was 11.4 nM. Moreover, the “off-target degradation of HA-CXCR4” value in experiment [8] is listed as “without detectable off-target degradation”. The “off-target degradation of HA-b1AR” value in experiment [9] was “without detectable off-target degradation”.
